Antibody variant affinities, Ab-14 heavy chain, assay B

Target: peptide PDVDLGDISGINAS, taken from heptad repeat 2 (HR2) of SARS-CoV-2 spike.

Each scFv is VH, a 15-residue (Gly4Ser)3 linker, VL, as in the parent Ab-14, and differs from it in the CDRs of the heavy chain only.
VH: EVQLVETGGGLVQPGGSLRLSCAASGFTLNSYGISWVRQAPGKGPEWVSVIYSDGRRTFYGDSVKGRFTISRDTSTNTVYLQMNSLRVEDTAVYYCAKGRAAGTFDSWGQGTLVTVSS
VL: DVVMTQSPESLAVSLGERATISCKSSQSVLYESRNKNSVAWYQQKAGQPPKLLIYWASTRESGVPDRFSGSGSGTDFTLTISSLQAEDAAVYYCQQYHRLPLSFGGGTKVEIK

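Designed CDR sequences, proposed from the first random library and measured here. Several design methods are mixed in this list. In AlphaSeq, yeast of one mating type display the scFv and yeast of the other type display the target. The frequency of each diploid, read from paired DNA barcodes, reflects how well the two displayed proteins bind. The ratio of observed to expected reads was calibrated, replicate by replicate, on BCL2-family standards whose Kd was known from biolayer interferometry. Each pool was mated in six replicate cultures.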

The parent's heavy chain CDRs are GFTLNSYGIS, VIYSDGRRTFYGDSVK, GRAAGTFDS; each variant's own CDRs replace them letter for letter.
This list holds designs with more than six substitutions.
Kd is apparent (estimated from mating counts) and averaged on the log scale over replicates with a signal. Smaller is tighter.
"nd" means that the variant was in the library but no mating with the target was seen in any replicate; the authors take this as a sign of poor binding, and no number exists.
The authors' rule: three or more of the six replicates give a measured affinity, fewer mean a poor binder.
Of ten entries with the parent sequence, four were seen in most replicates (averages 2.2 nM to 240 nM), three in one and three in none, so single entries are noisy.
Nonspecific signal, from three strains lacking the peptide, appeared in 1% of pairings of all heavy chain designs, centred on 120 nM (5% of these signals below 7.0 nM); values are not corrected for it.
The range of this assay differs from that of the first round, and the authors advise against merging the two.

With GFDLDEYGIS | VIYADGRRTAYSDSVK | GSNAGTFDV the result was 60 pM (6 of 6 replicates). With GFDLNEYGIS | VIYADGVRTVYADSVK | GNVAGTFDL the result was 620 pM (6 of 6 replicates). Variant GFDLNEYGIS | VIYADGRRTAYVDSVK | GENAGTFDV gave 390 pM (6 of 6 replicates). Variant GFTLYQKGWS | VICSDGRRTFYSDSVK | GRAAGFFDS gave 53 nM (1 of 6 replicates). Variant GFDLEDYGIS | VIYADGMRTAYADSVK | GNVAGTFDT gave 510 pM (6 of 6 replicates). With GDSLDEYGIS | VIYADGLRKQYSNKVK | GLEGFFFDQ the result was 29 nM (1 of 6 replicates). Variant GFDIQEYGIS | VIYADGMRVAYTNSVK | GTQSGSNII showed nd (0 of 6 replicates).

For GFDLNEYGVS | VIYADGQRRAYAANFK | GVNIGGLDA, the assay gave nd (0 of 6 replicates). For GFNLEDYGIS | VIYADGRRTAYVDSVK | GKVAGTFDV, the assay gave 160 pM (6 of 6 replicates). For GFDLNEYGIS | VIYADGRRTFYADSVK | GNNAGTFIQ, the assay gave 45 nM (3 of 6 replicates). With GFSLDEYGIS | VIYADGLRQHYANAVK | GEGAGTFTT the result was nd (0 of 6 replicates). Variant GFDLNEYGIS | VIYADGVRTAYADSVK | GNNGGTFDV gave 11 nM (6 of 6 replicates). Variant GFNLNEYGIS | VIYADGVRSFYSDSVK | GEAAGTFDV gave 370 pM (6 of 6 replicates). Variant GFDLEEYGIS | VIYADGMRTAYADSVK | GNTAGTFDV showed 240 pM (6 of 6 replicates).

For GRNLDEYGIS | VIYADGQRTSYIDNVK | GGDSVHLDM, the assay gave nd (0 of 6 replicates). Variant GFDLNEYGIS | VIYADGRRTQYIDSVK | GEIAGTFDM showed 330 pM (6 of 6 replicates). With GFDLDEYGIS | VIYADGMRTFYADSVK | GEVAGTFDT the result was 1.2 nM (6 of 6 replicates). Variant GFDLDEYGIS | VIYADGMRTAYSDSVK | GENAGTFDM showed 1.7 nM (6 of 6 replicates). Variant GFGLNEYGIS | VIYADGVRTAYLNNVK | GINSQFDWT gave nd (0 of 6 replicates). With GFDLNEYGIS | VIYADGQRKAYADSVK | GENAGTFDV the result was 260 pM (6 of 6 replicates). Variant GFDLNEYGIS | VIYADGRRTYYADSVK | GKNAGTFDQ showed 680 pM (6 of 6 replicates).

For GFDLNEYGIS | VIYADGRRTFYADSVK | GSEAGTFNI, the assay gave 280 pM (6 of 6 replicates). Variant GFDLNEYGIS | VIYADGMRTAYSDSVK | GGNAGTFDQ showed 660 pM (6 of 6 replicates). With GFDLDEYGIS | VIYADGRRTAYIDSVK | GETAGTFDV the result was 510 pM (6 of 6 replicates). Variant GEDLDEYGIS | VIYADGRRQYYANNVK | GDINDVDDL gave nd (0 of 6 replicates). With GFSLDEYGIS | VIYADGIRRVYVDKVK | GNYGGDFIE the result was 6.1 nM (6 of 6 replicates). For GFDLNEYGIS | VIYADGMRKAYADSVK | GQNAGTFDV, the assay gave nd (0 of 6 replicates). With GFDLEEYGIS | VIYADGMRTAYSDSVK | GNTAGTFDV the result was 170 pM (6 of 6 replicates).

With GFDLNEYGIS | VIYADGRRTFYSDSVK | GEIAGTFDM the result was 460 pM (6 of 6 replicates). For GFDLDEYGIS | VIYADGMRTAYADDVK | GETAGTFDT, the assay gave 300 pM (6 of 6 replicates). Variant GFQLNEYGIS | VIYADGIRREYASKVK | GGINASFDV gave nd (0 of 6 replicates). For GFQLDEYGIS | VIYADGERTHYSNDVK | GTIGGTFFQ, the assay gave 20 nM (6 of 6 replicates). For GFDLEKYGIS | VIYADGYRSAYASNVK | GGTAGTFHF, the assay gave 38 nM (6 of 6 replicates). For GFDLEEMGIH | VIYADGIRTAVSNDVK | GNVAGTIDV, the assay gave 23 nM (1 of 6 replicates). For GFDLNEYGIS | VIYADGRRTAYSDSVK | GQVAGTFDS, the assay gave 190 pM (6 of 6 replicates).

With GFDLNEYGIS | VIYADGMRTFYADSVK | GKNAGTFDQ the result was 6.0 nM (4 of 6 replicates). With GFDLNEYGIS | VIYADGRRTAYADSVK | GNQAGTFDV the result was 210 pM (6 of 6 replicates).

The first 3 variants above that were never detected:

GFDIQEYGIS | VIYADGMRVAYTNSVK | GTQSGSNII: nd (0 of 6 replicates).
GFDLNEYGVS | VIYADGQRRAYAANFK | GVNIGGLDA: nd (0 of 6 replicates).
GFSLDEYGIS | VIYADGLRQHYANAVK | GEGAGTFTT: nd (0 of 6 replicates).

Values reported by Li et al. 2023, doi:10.1038/s41467-023-39022-2 (FLAb copy).